The assay deals with Escherichia coli. As to conditions: ATCC 25922.

GENTAMICIN had an MIC of 0.5 µg/mL.

In general, MIC refers to the smallest concentration in the dilution series that meets the test's criterion for growth inhibition. Read a high MIC as a less susceptible organism.

The values above are taken from ChEMBL document CHEMBL1157014, “Synthesis, characterization and biological evaluation of some thiourea derivatives bearing benzothiazole moiety as potential antimicrobial and anticancer agents” (Eur J Med Chem, 2010).
